β-galactosidase activity in the two-hybrid assay data for 1 substance are collected here from paper doi:10.1101/108498.

Protein sequences, listed by entry. Tags and fused reporters are not part of them. Lines headed by an entry give the natural chain unless they say otherwise; changes in a name come on top. Residues count along the entry.
UniProt P38920: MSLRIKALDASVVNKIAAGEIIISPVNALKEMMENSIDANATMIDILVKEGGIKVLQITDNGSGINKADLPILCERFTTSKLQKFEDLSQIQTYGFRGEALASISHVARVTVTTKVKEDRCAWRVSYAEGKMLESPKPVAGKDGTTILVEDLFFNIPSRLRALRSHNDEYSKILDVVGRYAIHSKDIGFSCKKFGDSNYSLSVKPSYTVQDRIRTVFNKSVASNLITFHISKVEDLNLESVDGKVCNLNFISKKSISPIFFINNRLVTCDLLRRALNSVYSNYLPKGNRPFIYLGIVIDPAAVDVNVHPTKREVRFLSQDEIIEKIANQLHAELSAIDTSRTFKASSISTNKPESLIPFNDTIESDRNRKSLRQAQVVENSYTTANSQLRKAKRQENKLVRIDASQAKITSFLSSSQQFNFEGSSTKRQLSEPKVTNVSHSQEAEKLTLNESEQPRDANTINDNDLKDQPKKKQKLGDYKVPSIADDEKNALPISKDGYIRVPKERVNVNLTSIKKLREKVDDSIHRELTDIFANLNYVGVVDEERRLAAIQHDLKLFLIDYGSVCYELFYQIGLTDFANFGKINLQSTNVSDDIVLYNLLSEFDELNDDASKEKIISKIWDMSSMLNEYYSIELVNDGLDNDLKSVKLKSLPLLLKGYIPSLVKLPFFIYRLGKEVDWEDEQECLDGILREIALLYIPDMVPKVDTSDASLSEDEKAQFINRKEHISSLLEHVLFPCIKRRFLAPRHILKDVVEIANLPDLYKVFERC
UniProt Q12083, 481-715: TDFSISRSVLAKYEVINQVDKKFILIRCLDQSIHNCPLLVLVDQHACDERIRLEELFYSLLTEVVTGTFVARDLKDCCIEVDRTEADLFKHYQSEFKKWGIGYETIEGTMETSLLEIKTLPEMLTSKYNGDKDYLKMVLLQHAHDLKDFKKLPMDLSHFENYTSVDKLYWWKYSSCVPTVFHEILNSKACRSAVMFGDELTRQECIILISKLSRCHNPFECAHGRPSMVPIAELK

This experiment deals with lexA-Mlh1 (S. cerevisiae) (UniProt P38920). Put plainly: two-hybrid.

Consider “Gal4-Mlh3 (amino acids 481-715) (from UniProt Q12083 481-715) (domain or fragment)”, for which the β-galactosidase activity in the two-hybrid assay was 2.6 Miller units.
